Results on one compound are retold here after patent US10077277B2, “Bicyclic heteroarylaminoalkyl phenyl derivatives as PI3K inhibitors” (Incyte Corporation, priority 2014, dated 2018).

In the test the target is human JAK1 (Homo sapiens, UniProt P23458). In words: In vitro JAK kinase assay (Example J), JAK1. Particulars: Assay J at 1 mM ATP. It is filed as biochemical.

With `CN(C)Cc1cc(F)cc(OC2CCN(CC(CC#N)n3cc(-c4ncnc5[nH]ccc45)cn3)CC2)c1` (stereo not shown) [Example 14, 4-(4-{3-[(dimethylamino)methyl]-5-fluorophenoxy}piperidin-1-yl)-3-[4-(7H-pyrrolo[2,3-d]pyrimidin-4-yl)-1H-pyrazol-1-yl]butanenitrile], the half-maximal inhibitory concentration (IC50) was less than 10 nM.
